# Results as given in patent US7291478B1.
# Chains of the proteins cited; added tags and fusions are not shown. Lines headed by an entry give the natural chain unless they say otherwise; changes in a name come on top.
# UniProt Q45087: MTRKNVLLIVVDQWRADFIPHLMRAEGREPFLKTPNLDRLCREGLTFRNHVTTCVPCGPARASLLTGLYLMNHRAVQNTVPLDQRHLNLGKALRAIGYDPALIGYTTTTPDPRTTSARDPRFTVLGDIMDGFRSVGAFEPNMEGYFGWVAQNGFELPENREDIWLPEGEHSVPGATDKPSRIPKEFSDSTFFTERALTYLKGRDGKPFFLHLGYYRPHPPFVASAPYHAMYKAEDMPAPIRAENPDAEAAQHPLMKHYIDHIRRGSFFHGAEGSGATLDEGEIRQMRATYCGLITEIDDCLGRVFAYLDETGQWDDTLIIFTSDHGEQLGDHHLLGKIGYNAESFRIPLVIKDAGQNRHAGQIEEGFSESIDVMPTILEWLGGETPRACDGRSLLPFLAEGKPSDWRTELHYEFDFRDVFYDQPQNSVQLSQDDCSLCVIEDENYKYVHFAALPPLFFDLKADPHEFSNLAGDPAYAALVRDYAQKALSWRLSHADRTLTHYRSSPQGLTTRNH
# Biological target: phosphonate ester hydrolase (PEH) (Trinickia caryophylli, UniProt Q45087)
# Settings: parent compound alkali hydrolyzed (1.0 N NaOH), neutralized, then 10 mM with PEH extract, pH 9.0, about 30° C.; GC-FPD
row,SMILES,Degradation by PEH of the alkali-treated (alkaline hydrolyzed) product of the named compound
1,CCOP(=S)(OCC)Oc1cc(C)nc(C(C)C)n1,not
2,CNC(=O)/C=C(\C)OP(=O)(OC)OC,not
3,CCOC(=O)CC(SP(=S)(OC)OC)C(=O)OCC (stereo not drawn),not
